# System: Akt
# Assay: Akt kinase assay (histone H2B) in HUVEC lysates
# Type: cell-based, human
# Settings: serum-deprived HUVEC, VEGF 100 ng/ml, 15 min
substance,measurement,value
VEGF,Akt kinase activity,activated Akt kinase activity
